Data as given in BindingDB's records for PubMed 9223553 (Institut De Recherches Servier, 1997).

Amino acid sequences for entries named in this document (tags omitted).
UniProt P21917, whole entry: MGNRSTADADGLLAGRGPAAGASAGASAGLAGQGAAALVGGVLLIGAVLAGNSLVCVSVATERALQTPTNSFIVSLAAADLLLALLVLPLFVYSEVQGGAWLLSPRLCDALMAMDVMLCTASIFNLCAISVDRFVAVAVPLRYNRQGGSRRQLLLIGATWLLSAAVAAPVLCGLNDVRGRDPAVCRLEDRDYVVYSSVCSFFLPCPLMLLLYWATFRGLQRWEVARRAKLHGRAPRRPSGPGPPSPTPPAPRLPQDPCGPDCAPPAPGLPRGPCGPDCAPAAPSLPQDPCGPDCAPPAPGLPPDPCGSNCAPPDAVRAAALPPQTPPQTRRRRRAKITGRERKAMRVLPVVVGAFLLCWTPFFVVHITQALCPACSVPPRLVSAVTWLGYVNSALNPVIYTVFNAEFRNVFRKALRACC

Molecular target: D(4) dopamine receptor (Homo sapiens, UniProt P21917)

Ki: 315 nM
SMILES: c1cnc(N2CCN(Cc3ccc4c(c3)OCO4)CC2)nc1 [NSC_4850]
